These results are taken from patent US7314879B2, “Melanocortin receptor agonists” (Eli Lilly and Company, priority 2002, dated 2008).

Chains of the proteins cited; added tags and fusions are not shown.
UniProt P32245, whole entry: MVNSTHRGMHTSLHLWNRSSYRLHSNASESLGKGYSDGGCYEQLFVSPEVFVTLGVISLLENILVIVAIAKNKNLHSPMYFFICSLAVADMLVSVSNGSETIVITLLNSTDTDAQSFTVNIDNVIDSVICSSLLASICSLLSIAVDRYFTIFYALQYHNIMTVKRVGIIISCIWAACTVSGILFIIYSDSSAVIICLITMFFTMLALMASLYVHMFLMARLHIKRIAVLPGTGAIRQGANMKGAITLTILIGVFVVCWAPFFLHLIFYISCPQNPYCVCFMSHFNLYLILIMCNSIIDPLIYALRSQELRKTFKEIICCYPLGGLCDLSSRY

By EC50 is commonly meant the concentration at which the effect is half-maximal. As usually defined, the Ki is the equilibrium dissociation constant of an inhibitor or competing ligand from its target.

For experiment [1], the target named is T1, MC4 (Homo sapiens, UniProt P32245). In words: Functional agonist assay in HEK 293 cells stably expressing melanocortin receptor (luciferase reporter / whole cell cAMP accumulation). Conditions: tested form: TFA. The source says:
Functional cell based assays are developed to discriminate agonists and antagonists.
Agonist Assay: HEK 293 cells stably expressing a human melanocortin receptor (see e.g., Yang, et al., Mol-Endocrinol., 11(3): 274-80, 1997) are dissociated from tissue culture flasks using a trypsin/EDTA solution (0.25%; Life Technologies, Rockville, Md.). Cells are collected by centrifugation and resuspended in DMEM (Life Technologies, Rockville, Md.) supplemented with 1% L-glutamine and 0.5% fetal bovine serum. Cells are counted and diluted to 4.5×10^5/ml.
A compound of formula I is diluted in dimethylsulfoxide (DMSO) (3×10^−5 to 3×10^−10 M final concentrations) and 0.05 volume of compound solution is added to 0.95 volumes of cell suspension; the final DMSO concentration is 0.5%. After incubation at 37° C./5% CO2 for 5 hours, cells are lysed by addition of luciferin solution (50 mM Tris, 1 mM MgCl2, 0.2% Triton-X100, 5 mM DTT, 500 micromolar Coenzyme A, 150 micromolar ATP, and 440 micromolar luciferin) to quantify the activity of the reporter gene luciferase, an indirect measurement of intracellular cAMP production.
Luciferase activity is measured from the cell lysate using a Wallac Victor 2 luminometer. […]
Radioligand binding assays were run in SPA buffer (50 mM Sodium Acetate, 0.1% BSA). […] The plates were counted in a Wallac MicroBeta counter after a 12-hour incubation. […]
In general terms: A reporter such as luciferase makes a cellular process visible.

Experiment [2] concerns the target T1, MC4. The experiment can be described thus: Radioligand binding assay: competitive inhibition of 125I-NDP-alpha-MSH binding to membranes of stably transfected HEK 293 cells. Conditions: read-out: MC4 Ki; 125I-NDP-alpha-MSH competition; Ki from IC50 by Cheng-Prusoff equation; tested form: TFA. As for the experimental part: The radioligand binding assay is used to identify competitive inhibitors of ^125I-NDP-alpha-MSH binding to cloned human MCRs using membranes from stably transfected human embryonic kidney (HEK) 293 cells.
HEK 293 cells transfected with human or rat melanocortinin receptors are grown either as adherent monolayers or suspension culture. Monolayer cells are grown in roller bottle cultures at 37° C. and 5% CO2/air atmosphere in a 3:1 mixture of Dulbecco's modified Eagle medium (DMEM) and Ham's F12 containing 25 mM L-glucose, 100 units/ml penicillin G, 100 microgram/ml streptomyocin, 250 nanogram/ml amphoterin B, 300 microgram/ml genticin and supplemented with 5% fetal bovine serum. Monolayer cells are adapted to suspension culture (Berg et al., Biotechniques Vol. 14, No.6, 1993) and are grown in spinner or shaker flasks (37° C. and 7.5% CO2/air overlay) in a modified DME/F12 medium containing 0.1 mM CaCl2, 2% equine serum and 100 microgram/ml sodium heparin (to prevent cell-cell aggregation). […]
Solutions of a compound of formula I (300 picomolar to 30 micromolar) or unlabelled NDP-alpha-MSH (1 picomolar to 100 nanomolar) are added to 150 microliters of membrane binding buffer to yield final concentrations (listed in parantheses). […] The radioactivity is quantified in a Wallac Trilux Microplate Scintillation counter. […]

With `CC(C)CC1(N2CCN(C(=O)[C@@H](Cc3ccc(Cl)cc3)NC(=O)CC3NCc4ccccc43)CC2)CCN(C(C)C)CC1` (stereo partly drawn), on MC4 [1] (read-out: MC4 EC50, agonist potency, concentration giving half maximal stimulation), the EC50 turned out to be 4.3 nM. Besides, the “% Rel. Eff.” value on MC4 [1] (relative efficacy compared to NDP-alpha-MSH defined as 100% agonist) was 104%. For the same compound, the Ki on MC4 [2] was found to be 9 nM.
